In patent publication US10487044B2, “Gamma-aminobutyric acid hemihydrate crystal and preparation method thereof” (priority 2016, dated 2019):

Experiment: Stability in constant temperature and humidity chamber, followed by X-ray powder diffraction
Settings: petri dish, 30° C., 60 days, samples at the 30th and 60th days

SMILES | stability: X-ray powder diffraction patterns after storage
NCCCC(=O)O [Embodiment 2, γ-aminobutyric acid hemihydrate] | did not change significantly
NCCCC(=O)O [Embodiment 3, γ-aminobutyric acid hemihydrate] | did not change significantly
NCCCC(=O)O [Embodiment 4, γ-aminobutyric acid hemihydrate] | did not change significantly

Further lines, results first:

stability: X-ray powder diffraction patterns after storage | SMILES
did not change significantly | NCCCC(=O)O [Embodiment 1, γ-aminobutyric acid hemihydrate]
did not change significantly | NCCCC(=O)O [Embodiment 5, γ-aminobutyric acid hemihydrate]
did not change significantly | NCCCC(=O)O [Embodiment 6, γ-aminobutyric acid hemihydrate]
